We go through one molecule from patent US20120114665A1 (Regeneron, published 2012).

The test concerns the target T1, human RANKL (receptor activator of NF-κB ligand) (human, UniProt O14788 140-317, limits assumed).
T1 construct: also called hRANKL; hRANKL native trimer
T1 sequence: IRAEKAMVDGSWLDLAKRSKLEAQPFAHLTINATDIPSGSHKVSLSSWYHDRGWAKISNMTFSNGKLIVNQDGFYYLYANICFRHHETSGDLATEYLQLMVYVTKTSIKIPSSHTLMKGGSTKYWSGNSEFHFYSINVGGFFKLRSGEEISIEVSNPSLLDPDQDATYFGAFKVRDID
The experiment in a line: SPR (BIACORE 2000), antibody captured on anti-hFc, hRANKL injected. On the procedure: Equilibrium dissociation constants (KD values) for antigen binding to the selected antibodies generated by hybridoma cell lines described above were determined by surface kinetics in a real-time biosensor surface plasmon resonance assay (BIACORE™ 2000). Each selected antibody was captured on a goat anti-mouse IgG polyclonal antibody surface created through direct chemical coupling to a BIACORE™ chip to form a captured antibody surface.
Each selected antibody was captured on a goat anti-hFc polyclonal antibody (Jackson Immuno Research Lab) surface created through direct chemical coupling to a BIACORE™ chip to form a captured antibody surface (Table 2).

B1: 1G8 (antibody, V domains shown)
VH: QVQLVQSGGGVVQPGRSLRLSCAASGFTFSGYGMHWVRQAPDKGLEWVAVLSYDGTNKYYADSVKGRFTISRDNSKNTLYLQMNSLRAEDTAVYYCAKCLSGTYWGYGMDVWGQGTTVTVSS
VL: not shown
notes: From direct isolation of splenocytes; captured on anti-hFc; also called H4H003N
Regarding B1, binding was put at a Kd of 8.42 pM.

By Kd is commonly meant the equilibrium constant for the complex coming apart. Lower therefore signals a tighter complex.
